{"sequences": {"note": "Chains of the proteins cited; added tags and fusions are not shown. Residues count along the entry.", "UniProt Q9H2X9, 1-1116 isoform 2": "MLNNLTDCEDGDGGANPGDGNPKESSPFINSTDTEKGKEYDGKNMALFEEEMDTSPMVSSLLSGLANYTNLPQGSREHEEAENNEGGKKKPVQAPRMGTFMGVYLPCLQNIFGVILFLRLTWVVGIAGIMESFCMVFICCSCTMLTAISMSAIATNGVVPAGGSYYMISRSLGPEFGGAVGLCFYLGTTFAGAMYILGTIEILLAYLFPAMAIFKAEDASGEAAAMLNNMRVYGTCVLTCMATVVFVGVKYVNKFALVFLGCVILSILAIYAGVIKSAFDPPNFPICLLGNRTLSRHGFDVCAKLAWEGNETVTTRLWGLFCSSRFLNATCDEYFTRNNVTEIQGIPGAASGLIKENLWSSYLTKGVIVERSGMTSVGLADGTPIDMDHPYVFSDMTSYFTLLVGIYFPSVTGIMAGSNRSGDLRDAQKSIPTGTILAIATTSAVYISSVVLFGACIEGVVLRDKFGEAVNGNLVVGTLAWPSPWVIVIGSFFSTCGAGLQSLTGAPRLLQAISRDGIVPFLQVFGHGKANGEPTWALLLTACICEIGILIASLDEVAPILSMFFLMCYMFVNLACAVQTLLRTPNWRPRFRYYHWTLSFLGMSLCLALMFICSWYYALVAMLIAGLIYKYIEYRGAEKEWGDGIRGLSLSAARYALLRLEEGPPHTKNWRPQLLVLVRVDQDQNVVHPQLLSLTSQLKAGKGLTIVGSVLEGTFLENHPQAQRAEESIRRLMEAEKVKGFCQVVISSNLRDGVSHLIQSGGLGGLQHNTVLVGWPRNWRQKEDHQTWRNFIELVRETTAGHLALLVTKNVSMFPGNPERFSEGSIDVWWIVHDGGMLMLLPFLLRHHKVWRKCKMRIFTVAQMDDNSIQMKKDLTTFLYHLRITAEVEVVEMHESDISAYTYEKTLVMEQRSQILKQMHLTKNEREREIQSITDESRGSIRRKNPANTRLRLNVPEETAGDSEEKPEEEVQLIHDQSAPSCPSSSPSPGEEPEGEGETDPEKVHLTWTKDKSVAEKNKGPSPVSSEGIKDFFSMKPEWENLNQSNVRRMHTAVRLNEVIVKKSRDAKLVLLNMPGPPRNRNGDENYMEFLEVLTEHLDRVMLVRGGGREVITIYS"}, "source": "patent US20250281497A1", "about": "“FUSED AMINO PYRIMIDINE COMPOUNDS FOR TREATMENT OF SEIZURE DISORDERS” (Ovid Therapeutics Inc., priority 2024, published 2025)", "biological_target": "KCC2 (Homo sapiens, UniProt Q9H2X9)", "test": "Cellular thermal shift assay (CETSA) in transfected HEK-293 cells", "assay_type": "binding", "details": "30 μM, 90 min, heated 37-58° C."}
{"smiles": "CC(C)N1Cc2c(Nc3ccc(C4CCCCC4)cc3)nc(N3CCOCC3)nc2C1=O", "values": [{"measurement": "thermal stability of KCC2 / direct binding (CETSA)", "value": "reduced the thermal stability of KCC2"}]}
